From patent EP4094762A1, “TREATMENT OF NEUROLOGICAL INDICATIONS” (UCL Business Ltd, priority 2021, dated 2022)

Chains of the proteins cited; added tags and fusions are not shown. Lines headed by an entry give the natural chain unless they say otherwise; changes in a name come on top.
UniProt P47900: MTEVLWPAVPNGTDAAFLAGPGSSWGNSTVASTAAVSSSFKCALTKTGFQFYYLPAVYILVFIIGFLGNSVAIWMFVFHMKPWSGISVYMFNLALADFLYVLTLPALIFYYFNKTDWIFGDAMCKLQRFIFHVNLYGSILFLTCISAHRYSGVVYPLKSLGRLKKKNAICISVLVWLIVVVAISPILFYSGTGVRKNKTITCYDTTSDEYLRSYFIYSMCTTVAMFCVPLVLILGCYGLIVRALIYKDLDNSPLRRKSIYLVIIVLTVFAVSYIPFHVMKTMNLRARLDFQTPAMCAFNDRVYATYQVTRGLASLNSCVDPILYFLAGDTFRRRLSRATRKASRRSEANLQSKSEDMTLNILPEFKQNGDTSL

Tests used:
[1] = CNS penetration: intravenous cassette pharmacokinetic study, brain and plasma by LC-MS/MS; details: mouse
P2Y1 receptor = target: T1, P2Y1 receptor (Homo sapiens, UniProt P47900); assay: Cell based HTRF assay measuring IP1 accumulation; antagonism of the P2Y1 agonist MRS2365; details: rounded to nearest whole number
T1 construct: expressed in transfected cells
Method: IC50 values were determined using a cell based assay in stably transfected cells overexpressing the P2Y1 receptor. The assay system is a high throughput […] assay measuring accumulation of the intracellular messenger inositol monophosphate (IP1), generated intracellularly following activation of P2Y1.
P2Y1 overexpressing cells were maintained in T175 flasks. The day before the assay, these cells were split and 20µl cell suspension transferred to each well of white 384-well assay plates at a cell density of 0.5x10^6 cells/mL. Plates were pulse centrifuged, then incubated overnight at 37°C / 5% CO2 prior to assay.
On day of assay, medium was removed from cells and replaced with stimulation buffer. […] Positive control antagonist curves with standard compounds were included on each plate. Plates were incubated with antagonists for 1 hour prior to addition of 5nM of the agonist MRS2365, dispensed using a Bravo liquid handler. Following agonist addition, plates were incubated for 60 minutes prior to assay. Both incubations were carried out at 37°C / 5% CO2.
For the assay, IP1 accumulation was quantified using the IPOne kit according to manufacturer's instructions. In short, a standard curve was prepared for IP1 quantification, and cells lysed using kit lysis buffer. Assay reagents were added to the lysates, and incubated for 1 hour at room temperature without spinning or shaking. Plates were analysed on a BMG Pherastar plate reader, and IP1 signal generated in cells interpolated from the standard curve.

| IC50 (P2Y1 receptor) [nM] | Compound | Kp at 2 h ([1]; C57B16/J, in vivo, iv, 0.4 mg/kg) | CNS penetration (in words) ([1]; intravenous) |
| --- | --- | --- | --- |
| 787 | O=C(Nc1ccc(OC(F)(F)F)cc1)Nc1cccnc1Oc1cccc(C(F)(F)F)c1 [S38] |  |  |
| 2410 | COc1ccc(NC(=O)Nc2cccnc2Oc2cccc(C(F)(F)F)c2)cc1 [S60] |  |  |
| 1060 | O=C(Nc1ccc(F)cc1F)Nc1cccnc1Oc1cccc(C(F)(F)F)c1 [S46] |  |  |
| 65 | CC(C)c1ccccc1Oc1ncccc1NC(=O)Nc1ccc(OC(F)(F)F)cc1 [S5] |  |  |

The remaining lines, values behind:

| Compound | IC50 (P2Y1 receptor) [nM] | Kp at 2 h ([1]; C57B16/J, in vivo, iv, 0.4 mg/kg) | CNS penetration (in words) ([1]; intravenous) |
| --- | --- | --- | --- |
| CC(C)(C)c1ccccc1Oc1ncccc1NC(=O)Nc1ccc(OC(F)(F)F)cc1 [2 (BPTU), 1-(2-(2-(tert-butyl)phenoxy)pyridin-3-yl)-3-(4-(trifluoromethoxy)phenyl)urea] |  | 1.5 | exhibit CNS penetration |
| CC(C)c1ccccc1Oc1ncccc1NC(=O)Nc1ccc(C(C)(C)C)cc1 [S2] | 52 |  |  |
| O=C(Nc1ccc(F)cc1F)Nc1cccnc1Oc1ccccc1 [S66] | 3170 |  |  |
